Reference: publication PMC12559008 (Nature cancer, 2025)

Settings: mouse, in vivo, iv

Taxol
Injected PTX dose (%), Tumor: 0.11% | T1/2 (blood kinetics): 30.6 ± 23.4 min
